Measured affinities in a library of Ab-91 heavy chain variants

All variants were tested on one target, the spike HR2 peptide PDVDLGDISGINAS (SARS-CoV-2).

The variants keep the light chain, the linker and the frameworks of Ab-91 (scFv order VL, a 15-residue (Gly4Ser)3 linker, VH).
VL: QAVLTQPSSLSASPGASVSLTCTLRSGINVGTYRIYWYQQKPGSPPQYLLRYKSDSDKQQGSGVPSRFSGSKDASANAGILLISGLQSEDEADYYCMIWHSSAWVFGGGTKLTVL
VH: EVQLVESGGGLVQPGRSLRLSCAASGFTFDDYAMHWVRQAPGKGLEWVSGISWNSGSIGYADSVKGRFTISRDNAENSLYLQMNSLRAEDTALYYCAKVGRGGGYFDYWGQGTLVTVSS

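Phage display of a naive human antibody library on the peptide gave the parent. The library (AAYL51) carries one to three amino acid substitutions per variant, with no insertions or deletions. Affinity was read by AlphaSeq, a pooled yeast mating assay with surface-displayed partners. Mating (16 h, 30 °C) was followed by selection of diploids and sequencing of their barcodes. The ratio of observed to expected reads was calibrated, replicate by replicate, on BCL2-family standards whose Kd was known from biolayer interferometry. There are three technical replicates.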

The whole VH of each variant is written out. Numbers give log10(Kd / nM), so 0 is 1 nM and 3 is 1 µM. Smaller is tighter. Averages over replicates are reported, and they cover detected replicates only. An entry "ND" has no value in the source: the pair was not observed among the diploids in that replicate. This suggests poor binding but is not conclusive. Nonspecific signal, from three strains lacking the peptide, appeared in 21% of pairings of library AAYL51, centred on 4.54 (5% of these signals below 3.26); values are not corrected for it. For each scFv, signals with the empty controls are counted beside the result, with their mean in brackets.

VH	log10 Kd, replicates	log10 Kd (nM), mean	empty controls
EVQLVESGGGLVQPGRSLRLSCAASYFTFDDYAMHWVRQAPGKGLEWVSGISWNSGSIAYALSVKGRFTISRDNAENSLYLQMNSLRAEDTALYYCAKVGRGGGYFDYWGQGTLVTVSS	ND ND ND	ND	0/9
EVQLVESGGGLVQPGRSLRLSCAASGFTFDDYAMHWVRQAPGKGLEWVSGISWNCGSIGYADSVKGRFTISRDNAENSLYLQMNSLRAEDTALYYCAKPGRGGGYMDYWGQGTLVTVSS	6.25 ND ND	6.25	4/9 (4.89)
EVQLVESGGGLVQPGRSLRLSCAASGFTFDDYAMHWVRQAPGKGLEWVSKISWGSGSIGYADSVKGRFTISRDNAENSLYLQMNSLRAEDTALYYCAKVGRGGGYFDYWGQGTLVTVSS	ND ND ND	ND	1/9 (2.85)
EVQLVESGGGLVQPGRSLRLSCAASGFTFDDYAYHWVRQAPGKGLEWVSGISWNSGSIPFADSVKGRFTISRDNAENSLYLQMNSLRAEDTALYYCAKVGRGGGYFDYWGQGTLVTVSS	ND ND ND	ND	3/9 (3.81)
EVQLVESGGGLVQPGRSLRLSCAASGFTFDDYMMHWVRQAPGKGLEWVSGISWNSGFIGYADSVKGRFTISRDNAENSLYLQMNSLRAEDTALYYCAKVGRGGEYFDYWGQGTLVTVSS	ND ND ND	ND	0/9
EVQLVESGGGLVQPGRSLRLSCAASGLTFDDYAMHWVRQAPGKGLEWVSGVSWNSGSIGYADSVKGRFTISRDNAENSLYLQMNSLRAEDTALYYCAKVGRGGGYCDYWGQGTLVTVSS	ND ND ND	ND	1/9 (3.18)
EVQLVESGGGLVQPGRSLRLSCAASGFTFDDRAMHWVRQAPGKGLEWVSGISWKSGSIGYADSVKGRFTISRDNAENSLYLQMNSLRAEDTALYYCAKEGRGGGYFDYWGQGTLVTVSS	5.34 ND 4.86	5.10	6/9 (4.63)
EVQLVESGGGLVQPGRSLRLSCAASGFTFDDYAMDWVRQAPGKGLEWVSGISWNSGSIGYALSVKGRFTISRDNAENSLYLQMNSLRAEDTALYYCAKVGRGGGYEDYWGQGTLVTVSS	ND ND ND	ND	4/9 (3.73)
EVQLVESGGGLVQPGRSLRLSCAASGFTFDDYAMHWVRQAPGKGLEWVSGISWNSGSITEADSVKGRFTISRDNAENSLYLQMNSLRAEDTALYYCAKVGRMGGYFDYWGQGTLVTVSS	4.00 ND ND	4.00	3/9 (3.67)
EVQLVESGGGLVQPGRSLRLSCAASGFTFDDYAMHWVRQAPGKGLEWVSGDSWNSGSIGYADSVKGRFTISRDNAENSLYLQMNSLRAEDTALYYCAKVGRGNGYFDVWGQGTLVTVSS	ND ND ND	ND	0/9
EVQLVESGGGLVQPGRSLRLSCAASGFTFDMYAMHWVRQAPGKGLEWVSGIIWNSGSIGYADSVKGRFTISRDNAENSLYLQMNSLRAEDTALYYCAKKGRGGGYFDYWGQGTLVTVSS	ND ND ND	ND	2/9 (4.43)
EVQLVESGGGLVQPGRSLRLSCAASGGTFDDYAMHWVRQAPGKGLEWVSGISWNFGSIGYADSVKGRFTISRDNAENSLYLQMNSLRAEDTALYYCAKVGRCGGYFDYWGQGTLVTVSS	ND ND ND	ND	2/9 (5.09)
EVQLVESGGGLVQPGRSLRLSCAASGFTFPAYAMHWVRQAPGKGLEWVSGISWNSGSIGYADSVKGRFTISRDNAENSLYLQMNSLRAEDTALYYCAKVCRGGGYFDYWGQGTLVTVSS	5.16 4.62 3.91	4.56	3/9 (4.32)
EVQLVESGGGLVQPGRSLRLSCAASGFTFDDYSMHWVRQAPGKGLEWVSGISWNSGSIGYADSVKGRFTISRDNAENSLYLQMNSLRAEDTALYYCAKVGRGGGGFAYWGQGTLVTVSS	2.65 2.39 2.22	2.42	1/9 (4.87)
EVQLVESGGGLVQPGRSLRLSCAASGFTFFDYAMHWVRQAPGKGLEWVSGISWNSGSIGYSDSVKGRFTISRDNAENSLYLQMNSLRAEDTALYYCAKVGRGGSYFDYWGQGTLVTVSS	ND ND ND	ND	0/9
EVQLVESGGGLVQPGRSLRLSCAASGFTFDHYAMHWVRQAPGKGLEWVSGISWNLGSIGYADSVKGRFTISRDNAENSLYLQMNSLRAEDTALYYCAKVQRGGGYFDYWGQGTLVTVSS	ND ND ND	ND	1/9 (3.68)
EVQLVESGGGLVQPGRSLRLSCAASGFTMDDYAMHWVRQAPGKGLEWVSGISWNSGSIVCADSVKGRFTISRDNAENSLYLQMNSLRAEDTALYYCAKVGRGGGYFDYWGQGTLVTVSS	ND ND ND	ND	1/9 (2.83)
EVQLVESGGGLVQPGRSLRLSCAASGKTFDDYAMHWVRQAPGKGLEWVSGISWNSGSIGYADSPKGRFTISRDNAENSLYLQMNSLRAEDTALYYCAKVGRGGGGFDYWGQGTLVTVSS	ND ND ND	ND	2/9 (3.78)
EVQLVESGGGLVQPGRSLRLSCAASGFTFDDNAMHWVRQAPGKGLEWVSGISWNSYSIGYADSVKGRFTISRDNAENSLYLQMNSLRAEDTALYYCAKVGRGLGYFDYWGQGTLVTVSS	ND 4.57 ND	4.57	7/9 (4.46)
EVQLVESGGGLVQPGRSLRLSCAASGFTFDDVAMHWVRQAPGKGLEWVSGIIWNSGSIGYADSVKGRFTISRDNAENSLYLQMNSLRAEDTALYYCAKVGRGGGYFDDWGQGTLVTVSS	ND 6.47 4.82	5.65	5/9 (4.80)
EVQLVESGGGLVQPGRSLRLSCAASGFTFDDYPMHWVRQAPGKGLEWVSGISWNSGRIGYADSYKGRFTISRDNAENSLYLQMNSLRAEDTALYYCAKVGRGGGYFDYWGQGTLVTVSS	4.12 4.66 ND	4.39	7/9 (4.64)
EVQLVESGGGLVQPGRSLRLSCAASGFTFDIYAMHWVRQAPGKGLEWVSPISWNSGSSGYADSVKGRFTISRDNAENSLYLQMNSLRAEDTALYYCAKVGRGGGYFDYWGQGTLVTVSS	ND ND 4.01	4.01	0/9
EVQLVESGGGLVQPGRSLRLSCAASGFTFDDYANHWVRQAPGKGLEWVSGYSWNSGSIGYADSVKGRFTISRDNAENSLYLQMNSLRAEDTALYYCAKVSRGGGYFDYWGQGTLVTVSS	5.84 6.95 ND	6.39	7/9 (5.14)

Again, the first 2 entries without any signal:

VH	log10 Kd, replicates	log10 Kd (nM), mean	empty controls
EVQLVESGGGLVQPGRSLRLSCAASYFTFDDYAMHWVRQAPGKGLEWVSGISWNSGSIAYALSVKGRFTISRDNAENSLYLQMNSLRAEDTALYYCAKVGRGGGYFDYWGQGTLVTVSS	ND ND ND	ND	0/9
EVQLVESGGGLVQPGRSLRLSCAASGFTFDDYAMHWVRQAPGKGLEWVSKISWGSGSIGYADSVKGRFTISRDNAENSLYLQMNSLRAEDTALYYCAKVGRGGGYFDYWGQGTLVTVSS	ND ND ND	ND	1/9 (2.85)

The measurements come from Engelhart et al. 2022 (doi:10.1038/s41597-022-01779-4) through the FLAb antibody collection.